Measured values: publication PMC3210919 (Biochemistry, 2011)

Substrate: CC(=O)C(=O)O
Test: Coupling study: initial rates of Pi release at varying pyruvate
Assay type: biochemical, Rhizobium etli
Details: 15 mM HCO3^−
[1] = other: pyruvate varied, (−) acetyl-CoA

B1: wild-type RePC (Rhizobium etli CFN 42) (protein)
chain: MPISKILVANRSEIAIRVFRAANELGIKTVAIWAEEDKLALHRFKADESYQVGRGPHLARDLGPIESYLSIDEVIRVAKLSGADAIHPGYGLLSESPEFVDACNKAGIIFIGPKADTMRQLGNKVAARNLAISVGVPVVPATEPLPDDMAEVAKMAAAIGYPVMLKASWGGGGRGMRVIRSEADLAKEVTEAKREAMAAFGKDEVYLEKLVERARHVESQILGDTHGNVVHLFERDCSVQRRNQKVVERAPAPYLSEAQRQELAAYSLKIAGATNYIGAGTVEYLMDADTGKFYFIEVNPRIQVEHTVTEVVTGIDIVKAQIHILDGAAIGTPQSGVPNQEDIRLNGHALQCRVTTEDPEHNFIPDYGRITAYRSASGFGIRLDGGTSYSGAIITRYYDPLLVKVTAWAPNPLEAISRMDRALREFRIRGVATNLTFLEAIIGHPKFRDNSYTTRFIDTTPELFQQVKRQDRATKLLTYLADVTVNGHPEAKDRPKPLENAARPVVPYANGNGVKDGTKQLLDTLGPKKFGEWMRNEKRVLLTDTTMRDGHQSLLATRMRTYDIARIAGTYSHALPNLLSLECWGGATFDVSMRFLTEDPWERLALIREGAPNLLLQMLLRGANGVGYTNYPDNVVKYFVRQAAKGGIDLFRVFDCLNWVENMRVSMDAIAEENKLCEAAICYTGDILNSARPKYDLKYYTNLAVELEKAGAHIIAVKDMAGLLKPAAAKVLFKALREATGLPIHFHTHDTSGIAAATVLAAVEAGVDAVDAAMDALSGNTSQPCLGSIVEALSGSERDPGLDPAWIRRISFYWEAVRNQYAAFESDLKGPASEVYLHEMPGGQFTNLKEQARSLGLETRWHQVAQAYADANQMFGDIVKVTPSSKVVGDMALMMVSQDLTVADVVSPDREVSFPESVVSMLKGDLGQPPSGWPEALQKKALKGEKPYTVRPGSLLKEADLDAERKVIEKKLEREVSDFEFASYLMYPKVFTDFALASDTYGPVSVLPTPAYFYGLADGEELFADIEKGKTLVIVNQAVSATDSQGMVTVFFELNGQPRRIKVPDRAHGATGAAVRRKAEPGNAAHVGAPMPGVISRVFVSSGQAVNAGDVLVSIEAMKMETAIHAEKDGTIAEVLVKAGDQIDAKDLLAVYGG
kcat (other: (−) acetyl-CoA): 0.282 ± 0.0133 s⁻¹
kcat/Km (other: (−) acetyl-CoA): 5830 ± 250 M⁻¹ s⁻¹
kcat [1]: 0.282 ± 0.0133 s⁻¹
kcat/Km [1]: 5830 ± 250 M⁻¹ s⁻¹
